Reference: patent publication US6887878B2, “KMST isoeugenol derivatives and pharmaceutical activity” (Ing-Jun Chen, priority 2003, dated 2005)
pKi: −log10 of the molar value.

The chains behind the UniProt entries cited, without tags or fusion partners.
UniProt P14842, whole entry: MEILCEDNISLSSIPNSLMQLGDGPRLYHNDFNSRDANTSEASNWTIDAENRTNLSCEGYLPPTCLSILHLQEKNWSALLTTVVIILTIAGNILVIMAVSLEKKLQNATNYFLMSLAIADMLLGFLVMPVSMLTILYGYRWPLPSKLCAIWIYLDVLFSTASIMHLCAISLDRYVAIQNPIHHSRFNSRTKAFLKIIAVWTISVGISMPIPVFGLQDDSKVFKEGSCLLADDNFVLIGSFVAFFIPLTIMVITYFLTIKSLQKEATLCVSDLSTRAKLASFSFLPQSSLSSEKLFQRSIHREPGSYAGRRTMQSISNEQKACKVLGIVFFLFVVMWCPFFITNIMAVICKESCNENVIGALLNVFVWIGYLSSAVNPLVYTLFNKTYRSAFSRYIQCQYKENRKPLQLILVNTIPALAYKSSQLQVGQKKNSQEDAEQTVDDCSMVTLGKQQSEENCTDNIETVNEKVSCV
UniProt P19327, whole entry: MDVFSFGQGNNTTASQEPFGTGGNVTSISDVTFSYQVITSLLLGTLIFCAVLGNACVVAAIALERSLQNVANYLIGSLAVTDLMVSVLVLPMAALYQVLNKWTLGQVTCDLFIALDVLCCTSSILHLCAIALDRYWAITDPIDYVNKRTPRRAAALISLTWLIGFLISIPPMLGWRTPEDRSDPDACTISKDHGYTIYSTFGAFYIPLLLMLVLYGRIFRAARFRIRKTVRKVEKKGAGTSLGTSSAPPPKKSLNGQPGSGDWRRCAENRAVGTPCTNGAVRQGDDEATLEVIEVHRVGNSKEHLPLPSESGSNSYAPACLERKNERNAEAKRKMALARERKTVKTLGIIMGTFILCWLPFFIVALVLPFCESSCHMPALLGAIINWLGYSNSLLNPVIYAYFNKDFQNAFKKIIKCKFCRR

Columns and labels:
[1] = biological target: 5-HT2A receptor (Rattus norvegicus, UniProt P14842); assay: [3H]ketanserin receptor binding in rat cortex
[2] = biological target: 5-HT1A (Rattus norvegicus, UniProt P19327); assay: [3H]WAY100635 receptor binding

Row | SMILES | pKi [1] | pKi [2]
1 | CC(C)NCC(O)COc1ccc(CC(N)=O)cc1 (stereo not drawn) [Atenolol] | < 5.00 | –
2 | NCCc1c[nH]c2ccc(O)cc12 [Compound 5-HT, 5-Hydroxytryptamine] | – | 10.89
3 | CC(CCc1ccccc1)NCC(O)c1ccc(O)c(C(N)=O)c1 (stereo not drawn) [Labetalol] | 6.21 | –
